We go through two molecules from US20190062443A1 (GALAXY BIOTECH, published 2019).

The target in test [1] is T1, DR5-KF fusion protein (human, UniProt O14763 54-183; P01834 1-107, limits assumed). Nature of the test: sandwich ELISA for simultaneous binding: anti-DR4 mAb coat, DR4-hFc 0.5 µg/ml, test mAb, DR5-KF 0.5 µg/ml, HRP-anti-Flag M2 (FIG. 20A); no DR5-KF captured. Background: In an ELISA, binding on a coated surface is turned into a signal by an enzyme label.
The target of test [2] is T1, DR5-KF fusion protein. Nature of the test: capture ELISA with DR5-KF (FIG. 2C legend).

B1: 4H6-hFc** (antibody, V domains shown)
VH: QVQLKESGPGLVAPSQSLSITCTVSGFSLTSYGVHWVRQPPGKGLEWLGVIWAVGSTNYNSALMSRLSISKDNSKSQVFLKMNSLQTDDTAMYYCAREGEFDYYGSSLLSYHSMNFWGQGTSVTVSS
VL: DIQMTQTTSSLSASLGDRVTISCRASQDISNYLNWYQRKPDGTVKLLIYYTSRLHSGVPSRFSGSGSGTDYSLTISNLEQEDIATYFCQQGNTLPFTFGSGTKLEIK
notes: also called 4H6-hFc** (2); 4H6-Fc**
Consider B1, for which, in the test with DR5-KF fusion protein [1], the binding result is given as “no binding”.

B2: G4.2 (antibody, V domains shown)
VH: DVKLVESGGGLVKLGGSLKLSCAASGLPFNSYYMSWVRQTPEKRLELVAAINSNGGRIHYPDTVKGRFTISRDNAKNTLYLQMSSLKSEDTALYYCTRLTYYGNPAWFAYWGQGTLVTVSA
VL: NIVLTQSPASLAVSLGQRATMSCRASESVDIYGNSFMHWYQQKPGQPPKLLIYLSSNLESGVPARFSGSGSRTDFTLTIDPVEADDAATYYCQQSYEDPLTFGAGTKLDLK
notes: also called G4.2 mAb; mouse G4.2
For the molecule B2, the binding result with DR5-KF fusion protein [2] is on record as “binds”.
